The record followed here is patent US12473284B2, “Small molecule inhibitors of ULK1” (Memorial Sloan Kettering Cancer Center, priority 2019, dated 2025).

Chains of the proteins cited; added tags and fusions are not shown.
UniProt O75385, whole entry: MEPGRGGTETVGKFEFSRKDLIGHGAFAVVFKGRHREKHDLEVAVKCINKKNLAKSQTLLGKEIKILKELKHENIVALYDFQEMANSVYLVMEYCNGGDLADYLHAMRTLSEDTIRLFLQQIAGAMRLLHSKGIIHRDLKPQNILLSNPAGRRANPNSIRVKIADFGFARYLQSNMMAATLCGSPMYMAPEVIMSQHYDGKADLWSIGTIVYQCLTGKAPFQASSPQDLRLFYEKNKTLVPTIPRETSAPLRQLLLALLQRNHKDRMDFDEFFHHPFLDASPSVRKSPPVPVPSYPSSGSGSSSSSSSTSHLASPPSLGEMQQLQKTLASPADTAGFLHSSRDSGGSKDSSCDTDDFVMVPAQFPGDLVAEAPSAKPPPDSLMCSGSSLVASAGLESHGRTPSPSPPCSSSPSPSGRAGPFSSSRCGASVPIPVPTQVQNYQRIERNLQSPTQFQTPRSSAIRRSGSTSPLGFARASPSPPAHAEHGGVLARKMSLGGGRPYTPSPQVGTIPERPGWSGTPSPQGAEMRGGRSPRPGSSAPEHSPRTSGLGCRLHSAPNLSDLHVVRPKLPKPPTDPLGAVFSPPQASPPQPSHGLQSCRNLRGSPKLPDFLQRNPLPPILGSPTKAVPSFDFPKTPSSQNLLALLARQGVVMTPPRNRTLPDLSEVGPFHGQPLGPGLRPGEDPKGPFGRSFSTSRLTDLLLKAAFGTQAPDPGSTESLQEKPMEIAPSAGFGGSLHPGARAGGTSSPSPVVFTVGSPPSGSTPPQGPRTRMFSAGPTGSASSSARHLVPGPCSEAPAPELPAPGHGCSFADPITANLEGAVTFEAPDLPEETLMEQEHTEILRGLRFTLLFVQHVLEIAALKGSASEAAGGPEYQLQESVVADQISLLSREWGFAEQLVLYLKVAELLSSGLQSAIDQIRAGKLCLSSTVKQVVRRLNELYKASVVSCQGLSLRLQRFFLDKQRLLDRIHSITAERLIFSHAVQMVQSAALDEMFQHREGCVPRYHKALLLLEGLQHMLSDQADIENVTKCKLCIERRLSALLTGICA
UniProt O75143, whole entry partner: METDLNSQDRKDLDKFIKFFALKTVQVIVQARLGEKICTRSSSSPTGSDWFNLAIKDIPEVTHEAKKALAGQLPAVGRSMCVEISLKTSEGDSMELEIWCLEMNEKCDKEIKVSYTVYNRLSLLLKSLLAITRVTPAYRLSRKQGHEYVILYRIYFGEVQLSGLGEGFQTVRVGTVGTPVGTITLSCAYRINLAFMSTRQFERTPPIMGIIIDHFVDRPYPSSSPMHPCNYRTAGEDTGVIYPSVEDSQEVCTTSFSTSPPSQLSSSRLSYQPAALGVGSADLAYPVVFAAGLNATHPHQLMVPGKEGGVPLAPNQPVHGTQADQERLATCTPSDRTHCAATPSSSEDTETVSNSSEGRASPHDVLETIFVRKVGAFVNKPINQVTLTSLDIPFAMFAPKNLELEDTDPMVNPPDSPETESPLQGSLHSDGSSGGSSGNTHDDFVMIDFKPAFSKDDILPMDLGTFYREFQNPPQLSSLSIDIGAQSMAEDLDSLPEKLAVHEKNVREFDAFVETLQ

Molecules are shown by their SMILES.

The first assay has as its target ULK1/Atg13 kinase complex (Homo sapiens (Human), UniProt O75385). Nature of the assay: In vitro kinase assay (Kinase-Glo Plus luminescence, MBP 1-20 peptide substrate). Conditions: recombinant His-tagged ULK1/Atg13, 75 min at room temperature; salt form as in Table 1. How it is done:
In vitro kinase assays were performed as described below:
Recombinant His-tagged ULK1/Atg13 kinase complex was expressed in […] insect cells, and affinity-purified by Ni-NTA beads, aliquoted and stored at −80° C.
Compounds were dissolved in DMSO to make 10 mM stock solution, aliquoted and stored at −80° C.
1× kinase buffer was prepared: 20 mM Tris-HCl, pH7.5, 100 mM NaCl, 5 mM MgCl2, 0.5 mg/ml BSA, 5 mM DTT, 0.1% Tween-20.
For compound screening experiment, 1 μl of the 10 mM compound stock solution was added using P2.5 pipette into 99 μl 1×kinase buffer to make 100 μM working solution.
For compound titration experiment, 100 μM compound solution was further diluted (with 1×kinase buffer containing 1% DMSO) in a series manner.
30 mM MBP (Myelin basic protein) 1-20 peptide (sequence: […]; SEQ ID NO: 1) was prepared in 1× kinase buffer.
500 μM ATP was prepared in 1× kinase buffer.
Pre-incubation reactions were set up as shown in the Table below and pre-incubated for 10 min at room temperature.
4 μl of 500 μM ATP was added to the pre-incubation reaction (thus the final reaction volume is 20 μl) and incubated for 75 min at room temperature.
20 μl Kinase-Glo Plus (Promega) was added to the reaction (warmed to RT), mixed well and incubated at room temperature for 15 min.
20 μl reaction was pipetted into each well of a white 384-well plate.
the 384-well plate was subjected to brief centrifugation, and luminescence was read in a plate reader.
Calculated inhibition (%) was calculated as follows: […]
On the technique in general: In Kinase-Glo more light means more ATP remaining.
Regarding `CC(N)C1CCC(C(=O)Nc2ccnc3[nH]c(-c4nccs4)cc23)CC1` (single isomer, unassigned) [MSK-A178_Peak 1], the IC50 – broadly, the concentration that gives 50% inhibition – was found to be 0.352 µM.

In the case of `CC(N)C1CCC(C(=O)Nc2ccnc3[nH]c(-c4nccs4)cc23)CC1` (single isomer, unassigned) [MSK-A178_Peak 2], the IC50 is 0.0891 µM.

The same assay, now with this note: recombinant His-tagged ULK1/Atg13, 75 min at room temperature; salt form as in Table 1; tested form: HCl.
On to `CC(N)[C@H]1CC[C@H](C(=O)Nc2ccnc3[nH]c(-c4ccoc4)cc23)CC1` (stereo partly shown), for which the IC50 turned out to be 0.0433 µM.

Take `CC(N)[C@H]1CC[C@H](C(=O)Nc2ccnc3[nH]c(-c4ccc(C5CC5)cc4)cc23)CC1` (stereo partly shown): the IC50 amounted to 0.0298 µM.

As for `Cc1ccc(-c2cc3c(NC(=O)[C@H]4CC[C@H](C(C)N)CC4)ccnc3[nH]2)cc1` (stereo partly shown), the IC50 came to 0.0121 µM.

`CC(N)[C@H]1CC[C@H](C(=O)Nc2ccnc3[nH]c(-c4ccc(C(F)(F)F)cc4)cc23)CC1` (stereo partly shown): the IC50 was 0.0405 µM.

For the compound `CC(N)[C@H]1CC[C@H](C(=O)Nc2ccnc3[nH]c(-c4ccc(F)c(F)c4)cc23)CC1` (stereo partly shown), the 50% inhibitory concentration (IC50) came out at 0.0392 µM.

Take `CC(N)[C@H]1CC[C@H](C(=O)Nc2ccnc3[nH]c(-c4cccc(C#N)c4)cc23)CC1` (stereo partly shown): the IC50 stood at 0.0208 µM.

As for `CC(N)[C@H]1CC[C@H](C(=O)Nc2ccnc3[nH]c(-c4ccccc4F)cc23)CC1` (stereo partly shown), the IC50 came to 0.0257 µM.

For `COc1cccc(-c2cc3c(NC(=O)[C@H]4CC[C@H](C(C)N)CC4)ccnc3[nH]2)c1` (stereo partly shown), the IC50 amounted to 0.0156 µM.
